Results as given in patent US20260385973A1, “CARBON MONOXIDE PROBE MOLECULES” (published 2026).
Where “and” joins values, the source holds several entries; their conditions need not be identical. Identical values can stand only once. Entries after “also recorded” stand apart in the source; their conditions may differ. Blank lines part the entries; values can stand above or below the molecule they belong to.

Tests used:
[1] = Quantum yield determination for fluorescent products (quinine sulfate reference)
[2] = Stability of fluorescent products in serum
[3] = Fluorescence properties (excitation/emission wavelengths, Stokes shift); conditions: for pH dependency of fluorescence: around physiological pH, 30 μM 22, 10 μM 25; for Fluorescence profile λem / Fluorescence profile λex: Table 4, this work
[4] = Conversion of probe to fluorescent product on reaction with CO; conditions: CO gas; PBS, or DMA diluted with PBS
[5] = system: HeLa cells; assay: Relative CO level in HeLa cells determined with 11a; conditions: 100 μM 11a
[6] = system: HO-1; assay: Western blot for HO-1 in HeLa cells; conditions: 0.3 μM, 6 h
[7] = system: COHb; assay: COHb level determination in CO-treated mouse blood ex vivo
[8] = CO-sensing reaction kinetics of CO probe molecules (fluorescence); conditions: role: substrate, probe 10 μM; for Reaction kinetics towards CO (in words): CO 200 μM, PBS; for 2nd order reaction rate constant towards CO: second reactant CO (100-300 μM for 6a; 62.5-250 μM for 14), PBS pH 7.4
[9] = Detection limit for CO of benzamide-based probes in degassed DMA; conditions: for LOD (limit of detection): DMA; for Detection limit: 3σ/K
[10] = Signal-to-noise ratio (SNR) of CO probe molecules
[11] = Solubility
[12] = Stability in PBS; conditions: for Stability in PBS (in words): PBS pH 7.4; for Stability in PBS (time): 37 °C, HPLC
[13] = Sensing selectivity for CO over other species; conditions: pH 7.4 PBS; other species 100 μM (thiol, persulfide, peroxide, NO2^−, glutathione, glutathione disulfide, cysteine, CN^−, hydrogen sulfide, HClO)
[14] = CO concentration in liver and kidney tissue of dosed mice (14 or methanizer-FID-GC)
[15] = Detection limit for CO of naphthamide-based probes in PBS; conditions: for Detection limit: probe 20 μM in PBS, 3σ/K
[16] = system: HeLa cells; assay: Cytotoxicity in HeLa cells (CCK-8); conditions: less than 50 μM, within 24 h
[17] = system: HeLa cells; assay: Fluorescence imaging of CO in live HeLa cells; conditions: 20 μM probe; for Fluorescence in live HeLa cells after treatment with CO: DAPI channel, control without CO showed none
[18] = at 10 μM probe, emission spectrum area-based, >20 equiv. excessive CO

Φf (quantum yield) ([1]; medium H2O): 0.37
Φf (quantum yield) ([1]; medium PBS (pH 7.4)): 0.37
Stability in serum [2]: stable in serum
Molecule: CCCCN1C(=O)c2cccc(N)c2C1=O

Φf (quantum yield) ([1]; medium PBS (pH 7.4)): 0.23
Stokes shift [3]: 114 nm
pH dependency of fluorescence [3]: pH dependent
Stability in serum [2]: stable in serum
Molecule: CCCCN1C(=O)c2cccc(O)c2C1=O

Φf (quantum yield) ([1]; medium H2O): 0.82
Molecule: CCCCN1C(=O)c2cccc3c(OC)ccc(c23)C1=O

Molecule: CCCCNC(=O)c1c(O)cccc1C(=O)OCC
Conversion to fluorescent product / fluorescence recovery with CO [4]: completely converted to 22 almost instantly

λEm of protodepalladation species [3]: 420 nm
λEx of protodepalladation species [3]: 329 nm
Molecule: CCCCNC(=O)c1ccccc1O

Φf (quantum yield) ([1]; medium H2O): 0.33
Φf (quantum yield) ([1]; medium PBS (pH 7.4)): 0.33
pH dependency of fluorescence [3]: largely disappeared
Blue shift of maximum excitation and emission wavelengths compared to 22 ([3]; compared to 22): about 10 nm
Molecule: CCCN1C(=O)c2cccc(N)c2C1=O

Φf (quantum yield) ([1]; medium PBS (pH 7.4)): 0.29
Molecule: CCCN1C(=O)c2cccc(O)c2C1=O

Molecule: COC(=O)[C@]12CCC(C)(C)C[C@H]1[C@H]1C(=O)C=C3[C@@]4(C)C=C(C#N)C(=O)C(C)(C)[C@@H]4CC[C@@]3(C)[C@]1(C)CC2
Increase in fluorescence signal compared to DMSO vehicle control ([5]; 0.3 μM CDDO-Me, 6 h): 7.5%
HO-1 expression [6]: significantly increased HO-1 expression

Molecule: [C-]#[O+]
COHb level, CO-oximeter reading ([7]; partial CO saturated blood, same sample as measured with 5a): 8.2±0.45%
Increase in fluorescence signal compared to DMSO vehicle control ([5]; 250 ppm CO gas, 2 h): about 28%

Fluorescence profile λem [3]: 500 nm
Fluorescence profile λex [3]: 386 nm
Solubility in PBS [11]: about 5 mM
Molecule: (2-(butylcarbamoyl)-3-aminophenyl)(N^1,N^1,N^2,N^2-tetramethylethylenediamine) palladacycle trifluoromethanesulfonate salt
Reaction kinetics towards CO (in words) [8]: faster response to CO when compared to the hydroxyl derivative 5a
LOD (limit of detection) [9]: 0.9 nM (DMA)
Detection limit ([9]; probe 100 μM in DMA): 0.203 ppm
Detection limit ([9]; probe 1 mM in DMA): 0.187 ppm
SNR [10, 18]: Probe concentration dependent, 405-fold at 10 μM (area-based)
Aqueous/PBS solubility (in words) [11]: more water soluble than compounds 14 and 31a

Molecule: (2-(butylcarbamoyl)-3-aminophenyl)(bipyridine) palladium(II) iodide
Reaction kinetics towards CO (in words) [8]: substantially increased reaction kinetics compared to 12, 11a, and 5a

Stability in PBS (in words) [12]: stable in PBS solution
Fluorescence profile λem [3]: 511 nm
Fluorescence profile λex [3]: 397 nm
Solubility in PBS [11]: about 5 mM
Molecule: (2-(butylcarbamoyl)-3-hydroxyphenyl)(N^1,N^1,N^2,N^2-tetramethylethylenediamine) palladacycle trifluoromethanesulfonate salt
LOD (limit of detection) [9]: 0.75 nM (DMA)
Detection limit ([9]; probe 100 μM in DMA): 0.167 ppm
Detection limit ([9]; probe 1 mM in DMA): 0.099 ppm
SNR [10, 18]: Probe concentration dependent, 262-fold at 10 μM (area-based)
SNR ([10]; probe concentration 10 μM, PBS): 320 :1
SNR ([10]; probe concentration 100 μM, PBS): exceeds 1200 :1
Fluorescence intensity ([7]; 10 mM 5a, partial CO saturated mouse blood): 117.48 a.u.
COHb level determined with 5a ([7]; partial CO saturated mouse blood, fluorescence standard curve): 7.9%

Stability in PBS (in words) [12]: stable in PBS solution
Aqueous/PBS solubility (in words) [11]: soluble
Molecule: (2-(butylcarbamoyl)-3-hydroxyphenyl)(N^1,N^1,N^2,N^2-tetramethylethylenediamine) palladium(II) iodide
Reaction kinetics towards CO (in words) [8]: the same as the 5a

Molecule: (2-(butylcarbamoyl)-3-hydroxyphenyl)(bipyridine) palladacycle trifluoromethanesulfonate salt
Reaction kinetics towards CO (in words) [8]: much slower response to CO than 5a
2nd order reaction rate constant towards CO [8]: 13.8 ± 1.4 M⁻¹ s⁻¹

Molecule: (2-(propylcarbamoyl)-3-aminophenyl)(N^1,N^1,N^2,N^2-tetramethylethylenediamine) palladium(II) iodide
Reaction kinetics towards CO (in words) [8]: slower response to CO gas compared to 11a and the hydroxyl derivative 5a

Fluorescence profile λem [3]: 500 nm
Fluorescence profile λex [3]: 386 nm
Solubility in DMA (in words) ([11]; DMA): soluble in DMA
Solubility in PBS [11]: 100 µM
Molecule: (2-(propylcarbamoyl)-3-aminophenyl)(bipyridine) palladium(II) iodide
2nd order reaction rate constant towards CO [8]: 220.6 ± 27.2 M⁻¹ s⁻¹
LOD (limit of detection) [9]: 0.5 nM (DMA)
Detection limit ([9]; probe 1 mM in DMA): 0.1 ppm and 0.108 ppm
SNR (in words) ([10]; 1, 10 and 100 μM in PBS): excellent concentration-dependent SNR
SNR [10, 18]: Probe concentration dependent, 405-fold at 10 μM (area-based)
Selectivity for CO [13]: selectivity for CO
Conversion to fluorescent product / fluorescence recovery with CO [4]: quantitative conversion of 14 to the fluorescent product 25; also recorded: quantitatively forms 25 and produces the same fluorescence intensity after incubation with CO gas
Agreement of tissue CO determination with GC-methanizer [14]: no statistical difference

Stability in PBS (time) [12]: at least 1 hour
Fluorescence profile λem [3]: 459 nm
Fluorescence profile λex [3]: 377 nm
Aqueous/PBS solubility (in words) [11]: improved aqueous solubility
Solubility in PBS [11]: 50 µM
Molecule: (8-(butylcarbamoyl)-4-methoxynaphthyl)(bipyridine) palladacycle trifluoromethanesulfonate salt
Reaction kinetics towards CO (in words) [8]: as fast as 14
LOD (limit of detection) ([15]; 0.1% DMSO in PBS): 2.06 nM (0.1% DMSO in PBS)
Detection limit [15]: 2.06 nM
SNR [10, 18]: Probe concentration dependent, 157-fold at 10 μM (area-based)
Selectivity for CO [13]: highly selective
Conversion to fluorescent product / fluorescence recovery with CO [4]: formation of the naphthalimide fluorescent product 34
Cytotoxicity [16]: no cytotoxicity
Fluorescence in live HeLa cells after treatment with CO [17]: strong blue fluorescence
Sensing of endogenous CO production ([17]; HeLa, 0.3 μM CDDO-Me, 6 h, exposure 6 s): able to sense the increase in endogenous CO production

Stability in PBS (time) [12]: at least 1 hour
Molecule: (8-(butylcarbamoyl)-4-methoxynaphthyl)(bipyridine) palladium(II) bromide
Detection limit [15]: 2.74 nM
Selectivity for CO [13]: highly selective
Cytotoxicity [16]: no cytotoxicity
Fluorescence in live HeLa cells after treatment with CO [17]: strong blue fluorescence
